Measurements taken from patent publication US20260123631A1, “NATURAL PORPHIN SALT AND USE THEREOF AS PLANT GROWTH REGULATOR AND PLANT IMMUNITY INDUCER” (NANJING BOSTEC BIOLOGICAL ENGINEERING CO., LTD, priority 2022, published 2026).
“And” between values parts separate entries of the source, which are not always exact repeats. Equal values may be shown once. Read-outs that look alike come from different tables or passages of the source.

What was measured:
[1] = Stability of sample solutions in the dark/under light
Procedure: Determination: An appropriate amount of a salt sample was taken, dissolved with water, and diluted to prepare a test solution with a concentration of about 10 ppm. An acidic reference substance (extremely-insoluble in water) was prepared with a 30% to 50% ethanol aqueous solution into a test solution with a concentration of about 10 ppm.
Each test solution was scanned by an ultraviolet spectrophotometer (at 0 h) for absorbance in a range of 200 nm to 800 nm immediately after being prepared. Then a test solution of each sample was divided into two parts. One part was placed at room temperature of 25° C. in the dark, and the other part was placed under light with a light intensity of 30,000 lux. At 1 h, 2 h, and 3 h, a solution sample was collected and scanned for absorbance respectively.
An absorbance value of a maximum absorption peak at 0 h (starting) of each test solution was set as a relative content of 100%, and a ratio of an absorbance value at each time point to the absorbance value at 0 h was calculated to determine a relative content, %.

[2] = Water solubility of the prepared salts; type: physicochemical
[3] = under light 30,000 lux, 1 h, salts in water, acidic reference in 30% to 50% ethanol
[4] = under light 30,000 lux, 2 h, salts in water, acidic reference in 30% to 50% ethanol
[5] = under light 30,000 lux, 3 h, salts in water, acidic reference in 30% to 50% ethanol

Relative content [1, 3]	Relative content [1, 4]	Relative content [1, 5]	solubility in water [2]	Molecule	Relative content [1]	Half-life t1/2 for relative content [1]
75.37%	64.41%	61.27%	easily soluble	ammonium hydroxyhematin [Example 63]		
52.19%	47.37%	41.33%	easily soluble	ammonium chlorin [Example 54]		
64.04%	60.10%	52.18%	easily soluble	ammonium iron hydroxychlorophyllin [Example 73]		
				iron chlorin [reference compound]		0.73 h
62.53%	58.11%	51.07%	easily soluble	ammonium iron chlorophyllin [Example 31]		
63.54%	61.41%	55.37%	easily soluble	ammonium iron chlorin [Example 22]		
86.39%	85.55%	75.80%	soluble	calcium hydroxyhematin [Example 65]		
81.89%	74.32%	62.43%	soluble	calcium iron hydroxychlorophyllin [Example 75]		
56.43%	50.21%	48.37%	easily soluble	ammonium zinc chlorophyllin [Example 35]		
76.78%	67.79%	60.67%	soluble	calcium iron chlorin [Example 24]		
				sodium iron chlorin [Example 21]		3.41 h
51.17%	48.34%	42.83%	soluble	calcium chlorin [Example 56]		

Molecule	Relative content [1, 3]	Relative content [1, 4]	Relative content [1, 5]	solubility in water [2]	Relative content [1]	Half-life t1/2 for relative content [1]
calcium zinc chlorophyllin [Example 37]				soluble	60.41% and 48.22% and 42.39%	
magnesium copper chlorophyllin [Example 45]				soluble		
calcium copper chlorophyllin [Example 46]	75.63%	70.42%	64.38%	soluble		
magnesium hydroxyhematin [Example 64]				soluble		
magnesium chlorin [Example 55]				soluble		
magnesium iron hydroxychlorophyllin [Example 74]				soluble		
magnesium iron chlorin [Example 23]				soluble		
C=CC1=C(C)c2cc3[n-]c(cc4nc(cc5[n-]c(cc1n2)c(C)c5C=C)C(C)=C4CCC(=O)[O-])c(CCC(=O)[O-])c3C.[Cl-].[Fe+3].[Mn+2] [Example 15, manganese chlorhematin]	83.39%					
magnesium zinc chlorophyllin [Example 36]				soluble		
manganese zinc chlorophyllin [Example 40]				slightly soluble	58.33% and 50.00% and 44.70%	
